Here are results for 1 compound from paper PMC9588801 (Anesthesiology, 2022).

Sequences of proteins named here, by UniProt entry; tags and fusion partners are left off. Residues count along the entry.
UniProt P14867, 28-456: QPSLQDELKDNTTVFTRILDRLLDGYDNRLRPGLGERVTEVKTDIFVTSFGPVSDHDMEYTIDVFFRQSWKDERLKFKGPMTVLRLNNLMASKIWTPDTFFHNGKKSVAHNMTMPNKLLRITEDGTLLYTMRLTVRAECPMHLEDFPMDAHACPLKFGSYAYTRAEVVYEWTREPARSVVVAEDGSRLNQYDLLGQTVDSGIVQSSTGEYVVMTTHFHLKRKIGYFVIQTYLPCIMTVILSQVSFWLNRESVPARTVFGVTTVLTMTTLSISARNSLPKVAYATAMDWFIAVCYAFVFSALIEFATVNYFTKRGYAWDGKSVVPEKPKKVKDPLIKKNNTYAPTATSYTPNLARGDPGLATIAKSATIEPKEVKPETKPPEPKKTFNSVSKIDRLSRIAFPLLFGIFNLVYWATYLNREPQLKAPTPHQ
UniProt P18507, 40-475: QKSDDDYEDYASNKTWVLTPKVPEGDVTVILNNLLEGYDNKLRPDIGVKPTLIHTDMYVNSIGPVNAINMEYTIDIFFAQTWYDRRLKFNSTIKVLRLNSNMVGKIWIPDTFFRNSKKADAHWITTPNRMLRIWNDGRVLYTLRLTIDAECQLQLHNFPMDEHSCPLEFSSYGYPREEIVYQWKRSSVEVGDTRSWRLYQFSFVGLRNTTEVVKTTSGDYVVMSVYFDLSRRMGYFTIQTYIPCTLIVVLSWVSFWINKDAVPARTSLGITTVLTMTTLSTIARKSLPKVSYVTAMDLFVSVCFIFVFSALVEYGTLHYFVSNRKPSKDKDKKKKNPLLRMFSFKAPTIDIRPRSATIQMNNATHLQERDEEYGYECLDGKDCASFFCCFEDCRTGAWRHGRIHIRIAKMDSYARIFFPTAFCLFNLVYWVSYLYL
UniProt P28472, 26-473: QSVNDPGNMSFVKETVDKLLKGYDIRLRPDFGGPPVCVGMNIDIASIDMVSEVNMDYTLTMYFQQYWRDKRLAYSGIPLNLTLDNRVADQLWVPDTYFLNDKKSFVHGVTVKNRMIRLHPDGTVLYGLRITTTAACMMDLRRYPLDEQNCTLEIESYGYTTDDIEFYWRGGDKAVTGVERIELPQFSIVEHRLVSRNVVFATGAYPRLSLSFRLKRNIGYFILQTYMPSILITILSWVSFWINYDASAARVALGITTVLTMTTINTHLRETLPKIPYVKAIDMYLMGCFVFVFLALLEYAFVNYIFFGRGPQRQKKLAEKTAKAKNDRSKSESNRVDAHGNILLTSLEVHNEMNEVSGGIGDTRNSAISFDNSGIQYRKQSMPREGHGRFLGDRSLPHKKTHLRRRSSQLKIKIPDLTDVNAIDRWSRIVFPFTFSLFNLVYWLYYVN

The target of this assay is human α1β3γ2L GABAA receptor (Homo sapiens, UniProt P14867+P18507+P28472).

The EC50 is the concentration that produces a half-maximal response. A low value points to a more potent agent. `CC(C)c1cccc(C(C)C)c1O` [propofol, 2,6 di-isopropyl phenol]: the EC50 came out at 60 µM.
